Assay [1] concerns A549. The experiment in a line: Cytotoxicity against human A549 cells assessed as reduction in cell viability after 48 hrs by CCK8 assay. A general note: Formazan colour is commonly taken as a measure of viable cells.
Assay [2] deals with HEK293. The experiment in a line: Cytotoxicity against human HEK293 cells assessed as reduction in cell viability after 48 hrs by CCK8 assay. Type of assay: cell-based.
The subject of assay [3] is MRC5. The experiment in a line: Cytotoxicity against human MRC5 cells assessed as reduction in cell viability after 48 hrs by CCK8 assay. In kind it is cell-based.

Take `CC(C)OP(=O)(OC(C)C)[C@@H]1N[C@@]1(C)C#N`: the half-maximal inhibitory concentration (IC50) (usually the concentration at which inhibition is half-maximal) in assay [1] is 3.6 µM; in assay [2], over 50 µM; in assay [3], over 50 µM.

For `CCOP(=O)(OCC)[C@@H]1N[C@@]1(C)C#N`, the figures for the concentration for half-maximal inhibition (IC50) in assay [1], in assay [2] and in assay [3] were 4.3 µM, over 50 µM and over 50 µM, respectively.

On to `CCOP(=O)(OCC)[C@@H]1N[C@]1(C#N)CC`, for which the concentration for half-maximal inhibition (IC50) is 1.5 µM in assay [1], over 50 µM in assay [2] and over 50 µM in assay [3].

(Values after ChEMBL document CHEMBL4411294, “Synthesis and biological evaluation of cyanoaziridine phosphine oxides and phosphonates with antiproliferative activity” (Eur J Med Chem, 2019).)
